Laboratory results as given in patent US6846802B2, “Macrocyclic NS3-serine protease inhibitors of hepatitis C virus comprising N-cyclic P2 moieties” (priority 2000, dated 2005).
Where two headings read alike, the source gives them in different places. Starred links: 1 amine or outer side, 2 acyl side, 3 side chain; linkers in the order of their positions; H or OH if unused. Positions of bridges follow the written chain, without caps; N, C: chain ends. Non-standard residues stand in square brackets, D forms with d. Residues, ends and D or L forms follow the SMILES beside them. Tic(7-O(CH2)6CO) = O=C([C@@H]1Cc2ccc(OCCCCCCC(=O)[*:3])cc2CN1[*:1])[*:2]; X2 = CCC[C@@H](N[*:1])C(=O)C(=O)[*:2]; X1 = CCC[C@H](N[*:1])C(=O)C(=O)[*:2]; Chg = N[C@H](C(=O)O)C1CCCCC1; Phg = N[C@H](C(=O)O)c1ccccc1

Protein sequences, listed by entry. Tags and fused reporters are not part of them. Residues count along the entry.
UniProt P27958, 1027-1657: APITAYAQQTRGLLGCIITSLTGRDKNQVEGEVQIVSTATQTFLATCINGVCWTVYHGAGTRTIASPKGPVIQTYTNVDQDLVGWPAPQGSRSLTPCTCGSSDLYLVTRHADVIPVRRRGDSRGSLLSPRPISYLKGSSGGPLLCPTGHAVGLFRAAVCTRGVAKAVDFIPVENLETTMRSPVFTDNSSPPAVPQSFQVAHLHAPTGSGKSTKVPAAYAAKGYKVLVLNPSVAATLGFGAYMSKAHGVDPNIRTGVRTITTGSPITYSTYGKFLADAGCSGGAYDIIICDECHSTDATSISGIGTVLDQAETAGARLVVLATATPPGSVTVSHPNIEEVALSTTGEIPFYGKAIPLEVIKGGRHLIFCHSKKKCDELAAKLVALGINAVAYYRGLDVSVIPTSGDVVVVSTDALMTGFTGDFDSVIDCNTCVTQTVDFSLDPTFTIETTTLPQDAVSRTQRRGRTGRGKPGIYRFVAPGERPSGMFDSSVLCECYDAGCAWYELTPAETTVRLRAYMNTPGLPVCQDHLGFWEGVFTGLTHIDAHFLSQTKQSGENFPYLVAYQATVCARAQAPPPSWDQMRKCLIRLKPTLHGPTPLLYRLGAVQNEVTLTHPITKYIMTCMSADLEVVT
UniProt P27958, 1658-1711: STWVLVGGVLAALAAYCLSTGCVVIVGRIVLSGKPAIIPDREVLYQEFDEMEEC

Molecular target: Recombinant heterodimeric HCV NS3/NS4A protease (strain 1a) (Hepatitis C virus genotype 1a, UniProt P27958)
Experiment: biochemical

Row | Structure (SMILES) | Ki | Ki (pH 6.5, read-out: Ki*)
1 | C=CCNC(=O)C(=O)C(CCC)NC(=O)[C@@H]1C[C@@H]2CN1C(=O)[C@H](c1ccccc1)NC(=O)Cc1cccc(c1)OCCC(C)(C)O2 (stereo partly shown) [Compound 99] | 101 to 100000 nM | 
2 | CCCCC(NC(=O)[C@@H]1[C@H]2OC3CCCOc4cccc(c4)CC(=O)N[C@@H](C4CCCCC4)C(=O)N1C[C@@H]2O3)C(=O)C(=O)NCC(=O)N[C@H](C(=O)N(C)C)c1ccccc1 (stereo partly shown) [Compound 76] | 1 to 100 nM | 
3 | CCCC(NC(=O)[C@@H]1C[C@@H]2CN1C(=O)[C@H](C(C)CC)NC(=O)Cc1cccc(c1)OCCC(C)(C)O2)C(=O)C(=O)NCC(=O)N[C@H](C(=O)N(C)C)c1ccccc1 (stereo partly shown) [Compound 101] | 1 to 100 nM | 
4 | CCCC(NC(=O)[C@@H]1C[C@@H]2CN1C(=O)[C@H](C1CCCCC1)NC(=O)Cc1cccc(c1)OCCCCO2)C(=O)C(=O)NCC(=O)N[C@H](C(=O)O)c1ccccc1 (stereo partly shown) [Compound 6] | 1 to 100 nM | 
5 | CCCC(NC(=O)[C@@H]1Cc2ccc3cc2CN1C(=O)[C@H](C1CCCCC1)NC(=O)CCc1ccc(cc1)O3)C(=O)C(=O)NCC(=O)N[C@H](C(=O)O)c1ccccc1 (stereo partly shown) [Compound 61] | 101 to 100000 nM | 
6 | CCC[C@H](NC(=O)[C@@H]1Cc2ccc3cc2CN1C(=O)[C@H](C1CCCCC1)NC(=O)CCCCCCO3)C(=O)C(=O)NCC(=O)N[C@H](C(=O)O)c1ccccc1 [Compound 59B] ([Chg][Tic(7-O(CH2)6CO)][X1]G[Phg]-OH; lactam N-2) | 1 to 100 nM | 
7 | CCC[C@H](NC(=O)[C@@H]1C[C@@H]2CN1C(=O)[C@H](C1CCCCC1)NC(=O)Cc1cccc(c1)OCCCCO2)C(=O)C(=O)NCC(=O)N[C@H](C(=O)N(C)C)C1Cc2ccccc2C1 [Compound 70B] | 1 to 100 nM | 
8 | CCC[C@H](NC(=O)[C@@H]1C[C@@H]2CN1C(=O)[C@H](C(C)(C)C)NC(=O)c1cccc(c1)OCCCCO2)C(=O)C(=O)NCC(=O)N[C@H](C(=O)N(C)C)c1ccccc1 [Compound 44B] | 101 to 100000 nM | 
9 | CCCC(NC(=O)[C@@H]1C[C@@H]2CN1C(=O)[C@H](C(C)(C)C)NC(=O)Cc1cccc(c1)OCCC(C)(C)O2)C(=O)C(N)=O (stereo partly shown) [Compound 94] | 101 to 100000 nM | 
10 | C=CCCC(NC(=O)[C@@H]1C[C@@H]2CN1C(=O)[C@H](C1CCCCC1)NC(=O)Cc1cccc(c1)OCCCC(C)(C)O2)C(=O)C(=O)NCC=C (stereo partly shown) [Compound 108] | 101 to 100000 nM | 
11 | C=CCCC(NC(=O)[C@@H]1C[C@@H]2CN1C(=O)[C@H](C1CCCCC1)NC(=O)Cc1cccc(c1)OCCC(C)(C)O2)C(=O)C(=O)NCC=C (stereo partly shown) [Compound 86] | 101 to 100000 nM | 
12 | CCCC(NC(=O)[C@@H]1C[C@@H]2CN1C(=O)[C@H](c1ccccc1)NC(=O)Cc1cccc(c1)OCCC(C)(C)O2)C(=O)C(=O)NCC(=O)N[C@H](C(=O)N(C)C)c1ccccc1 (stereo partly shown) [Compound 98] | 1 to 100 nM | 
13 | C=CCNC(=O)C(=O)C(CCC)NC(=O)[C@@H]1C[C@@H]2CN1C(=O)[C@H](C1CCCCC1)NC(=O)Cc1cccc(c1)OCCC(C)(C)O2 (stereo partly shown) [Compound 82] | 101 to 100000 nM | 
14 | CCCC(NC(=O)[C@@H]1Cc2ccc3cc2CN1C(=O)[C@H](C1CCCCC1)NC(=O)CCCCc1ccc(cc1)O3)C(=O)C(=O)NCC(=O)N[C@H](C(=O)N(C)C)c1ccccc1 (stereo partly shown) [Compound 63] | 101 to 100000 nM | 
15 | C=CCC(NC(=O)[C@@H]1C[C@@H]2CN1C(=O)[C@H](C1CCCCC1)NC(=O)Cc1cccc(c1)OCCC(C)(C)O2)C(=O)C(=O)NCCC(=O)OC(C)(C)C (stereo partly shown) [Compound 90] | 101 to 100000 nM | 
16 | CCC[C@@H](NC(=O)[C@@H]1C[C@@H]2CN1C(=O)[C@H](C(C)(C)C)NC(=O)Cc1cccc(c1)OCCCO2)C(=O)C(=O)NCC(=O)N[C@H](C(=O)N(C)C)c1ccccc1 [Compound 12A] | 101 to 100000 nM | 
17 | C=CCNC(=O)C(=O)C(CCC)NC(=O)[C@@H]1C[C@@H]2CN1C(=O)[C@H](C1CCCC1)NC(=O)Cc1cccc(c1)OCCC(C)(C)O2 (stereo partly shown) [Compound 104] | 101 to 100000 nM | 
18 | C=CCNC(=O)C(=O)C(CCC)NC(=O)C1C[C@@H]2CN1C(=O)[C@H](C1CCCCC1)NC(=O)Cc1cccc(c1)OCCCC(C)(C)O2 (stereo partly shown) [Compound 106] | 101 to 100000 nM | 
19 | CCCC(NC(=O)[C@@H]1C[C@@H]2CN1C(=O)[C@H](C1CCCCC1)NC(=O)Cc1cccc(c1)OCCC(C)(C)O2)C(=O)C(=O)NCC(=O)NCc1ccccc1 (stereo partly shown) [Compound 79] | 101 to 100000 nM | 
20 | CCCC(NC(=O)C1CC2CN1C(=O)[C@H](C1CCC(C(=O)OC(C)(C)C)CC1)NC(=O)Cc1cccc(c1)OCCCO2)C(=O)C(=O)NCC(=O)N[C@H](C(=O)N(C)C)c1ccccc1 (stereo partly shown) [Compound 14] |  | 1 to 100 nM
21 | CCCC(NC(=O)[C@@H]1C[C@@H]2CN1C(=O)[C@H](C1CCCCC1)NC(=O)Cc1cccc(c1)OCCO2)C(=O)C(=O)NCC(=O)N[C@H](C(=O)OC(C)(C)C)c1ccccc1 (mixture of isomers) [Compound 8] | 101 to 100000 nM | 
22 | CCC[C@H](NC(=O)[C@@H]1C[C@@H]2CN1C(=O)[C@H](C1CCCCC1)NC(=O)Cc1cccc(c1)OCCCS2)C(=O)C(=O)NCC(=O)N[C@H](C(=O)N(C)C)c1ccccc1 [Compound 10B] | 1 to 100 nM | 
23 | CCCC(NC(=O)[C@@H]1C[C@@H]2CN1C(=O)[C@H](C1CCCCC1)NC(=O)Cc1cccc(c1)OCCCCO2)C(=O)C(=O)NCC(=O)N[C@H](C(=O)OC(C)(C)C)c1ccccc1 (mixture of isomers) [Compound 5] | 1 to 100 nM | 

Row | Structure (SMILES) | Ki | Ki (pH 6.5, read-out: Ki*)
24 | CCC[C@@H](NC(=O)[C@@H]1C[C@@H]2CN1C(=O)[C@H](C(C)(C)C)NC(=O)c1cccc(c1)OCCCCO2)C(=O)C(=O)NCC(=O)N[C@H](C(=O)N(C)C)c1ccccc1 [Compound 44A] | 101 to 100000 nM | 
25 | CCCC(NC(=O)[C@@H]1C[C@@H]2CN1C(=O)[C@H](C(C)(C)C)NC(=O)Cc1cccc(c1)OCCCO2)C(=O)C(=O)NCC(=O)N[C@H](C(=O)O)c1ccc(NS(N)(=O)=O)cc1 (stereo partly shown) [Compound 19] | 1 to 100 nM | 
26 | CCC[C@H](NC(=O)[C@@H]1C[C@@H]2CN1C(=O)[C@H](C1CCCCC1)NC(=O)Nc1cccc(c1)OCCCO2)C(=O)C(=O)NCC(=O)N[C@H](C(=O)N(C)C)c1ccccc1 [Compound 26B] | 101 to 100000 nM | 
27 | CCC[C@@H](NC(=O)[C@@H]1C[C@@H]2CN1C(=O)[C@H](C1CCCCC1)NC(=O)Cc1cc(C)cc(c1)OCCCO2)C(=O)C(=O)NCC(=O)N[C@H](C(=O)N(C)C)c1ccccc1 [Compound 74A] | 101 to 100000 nM | 
28 | CCC[C@@H](NC(=O)[C@@H]1C[C@@H]2CN1C(=O)[C@H](C1CCCCC1)NC(=O)CCc1cccc(c1)OCCO2)C(=O)C(=O)NCC(=O)N[C@H](C(=O)N(C)C)c1ccccc1 [Compound 20A] | 101 to 100000 nM | 
29 | CCC[C@@H](NC(=O)[C@@H]1C[C@H]2CN1C(=O)[C@H](C(C)(C)C)NC(=O)Cc1cccc(c1)OCCCO2)C(=O)C(=O)NCC(=O)N[C@H](C(=O)N(C)C)c1ccccc1 [Compound 56A] | 101 to 100000 nM | 
30 | CCC[C@@H](NC(=O)[C@@H]1Cc2ccc3cc2CN1C(=O)[C@H](C1CCCCC1)NC(=O)CCCCCCO3)C(=O)C(=O)NCC(=O)N[C@H](C(=O)O)c1ccccc1 [Compound 59A] ([Chg][Tic(7-O(CH2)6CO)][X2]G[Phg]-OH; lactam N-2) | 1 to 100 nM | 
31 | CCCC(NC(=O)[C@@H]1C[C@@H]2CN1C(=O)[C@H](C1CCCCC1)NC(=O)Cc1cccc(c1)OCCCCO2)C(=O)C(=O)NCC(=O)N[C@H](CO)c1ccccc1 (stereo partly shown) [Compound 72] | 1 to 100 nM | 
32 | CCCC(NC(=O)[C@@H]1C[C@@H]2CN1C(=O)[C@H](C1CCCCC1)NC(=O)Cc1cccc(c1)OCCC(C)(C)O2)C(=O)C(=O)NCC(=O)N[C@H](C(=O)OC(C)(C)C)c1ccccc1 (stereo partly shown) [Compound 31] | 1 to 100 nM | 
33 | CCC[C@H](NC(=O)[C@@H]1C[C@@H]2CN1C(=O)[C@H](C1CCCCC1)NC(=O)Cc1ccc(C)c(c1)OCCCO2)C(=O)C(=O)NCC(=O)N[C@H](C(=O)N(C)C)c1ccccc1 [Compound 75B] | 1 to 100 nM | 
34 | CCCC(NC(=O)[C@@H]1C[C@@H]2CN1C(=O)[C@H](C1CCCCC1)NC(=O)Cc1cccc(c1)OCCCO2)C(=O)C(=O)NCC(=O)O (stereo partly shown) [Compound 24] | 101 to 100000 nM | 
35 | C=CCNC(=O)C(=O)C(CC=C)NC(=O)[C@@H]1C[C@@H]2CN1C(=O)[C@H](C1CCCCC1)NC(=O)Cc1cccc(c1)OCCC(C)(C)O2 (stereo partly shown) [Compound 89] | 101 to 100000 nM | 
36 | CCCC(NC(=O)[C@@H]1Cc2ccc3cc2CN1C(=O)[C@H](C1CCCCC1)NC(=O)CCc1ccc(cc1)O3)C(=O)C(=O)NCC(=O)N[C@H](C(=O)N(C)C)c1ccccc1 (stereo partly shown) [Compound 62] | 101 to 100000 nM | 
37 | CC1(C)CCCOc2cccc(c2)CC(=O)N[C@@H](C2CCCCC2)C(=O)N2C[C@@H](C[C@H]2C(=O)NC(CC2CC2)C(=O)C(N)=O)O1 (stereo partly shown) [Compound 109] | 101 to 100000 nM | 
38 | CCCC(NC(=O)[C@@H]1C[C@@H]2CN1C(=O)[C@H](C1CCCCC1)NC(=O)Cc1cccc(c1)OCCCO2)C(=O)C(=O)NCC(=O)N[C@H](C(=O)O)c1ccccc1 (stereo partly shown) [Compound 3] | 1 to 100 nM | 
39 | C=CCNC(=O)C(=O)C(CCC)NC(=O)[C@@H]1C[C@@H]2CN1C(=O)[C@H](C(C)C)NC(=O)Cc1cccc(c1)OCCC(C)(C)O2 (stereo partly shown) [Compound 96] | 101 to 100000 nM | 
40 | CCC[C@H](NC(=O)[C@@H]1C[C@@H]2CN1C(=O)[C@H](C1CCCCC1)NC(=O)N(C)Cc1cccc(c1)OCCCO2)C(=O)C(=O)NCC(=O)N[C@H](C(=O)N(C)C)c1ccccc1 [Compound 66B] | 1 to 100 nM | 
41 | CCC[C@@H](NC(=O)[C@@H]1C[C@@H]2CN1C(=O)[C@H](C1CCCCC1)NC(=O)Cc1cccc(c1)OCCCO2)C(=O)C(=O)NCC(=O)N[C@H](C(=O)N(C)C)C1Cc2ccccc2C1 [Compound 69A] | 101 to 100000 nM | 
42 | CCC[C@@H](NC(=O)[C@@H]1C[C@@H]2CN1C(=O)[C@H](C1CCCCC1)NC(=O)N(C)Cc1cccc(c1)OCCC(C)(C)O2)C(=O)C(=O)NCC(=O)N[C@H](C(=O)N(C)C)c1ccccc1 [Compound 67A] | 101 to 100000 nM | 
43 | CCCC(NC(=O)[C@@H]1C[C@@H]2CN1C(=O)[C@H](C1CCCCC1)NC(=O)CCc1cccc(c1)OCCO2)C(=O)C(=O)NCC(=O)N[C@H](C(=O)O)c1ccccc1 (stereo partly shown) [Compound 22] | 1 to 100 nM | 
44 | CCC[C@H](NC(=O)[C@@H]1C[C@H]2CN1C(=O)[C@H](C(C)(C)C)NC(=O)Cc1cccc(c1)OCCCO2)C(=O)C(=O)NCC(=O)N[C@H](C(=O)N(C)C)c1ccccc1 [Compound 56B] | 101 to 100000 nM | 
45 | CCCC(NC(=O)C1C[C@@H]2CN1C(=O)C(C1CCCCC1)NC(=O)CCCCc1ccc(cc1)S(=O)(=O)N2)C(=O)C(=O)NCC(=O)N[C@H](C(=O)O)c1ccccc1 (stereo partly shown) [Compound 40] | 101 to 100000 nM | 
46 | CCC[C@@H](NC(=O)[C@@H]1[C@H]2OC3CCCOc4cccc(c4)CC(=O)N[C@@H](C4CCCCC4)C(=O)N1C[C@@H]2O3)C(=O)C(=O)NCC(=O)N[C@H](C(=O)O)c1ccccc1 [Compound 29A] | 101 to 100000 nM | 
